Target: μ opioid receptor co-transfected with TRPM3α1 (Homo sapiens, UniProt P35372)
Type: cell-based
Details: DAMGO 1 μM, ±80 mV

Amino acid sequences for entries named in this document (tags omitted).
UniProt P35372, whole entry: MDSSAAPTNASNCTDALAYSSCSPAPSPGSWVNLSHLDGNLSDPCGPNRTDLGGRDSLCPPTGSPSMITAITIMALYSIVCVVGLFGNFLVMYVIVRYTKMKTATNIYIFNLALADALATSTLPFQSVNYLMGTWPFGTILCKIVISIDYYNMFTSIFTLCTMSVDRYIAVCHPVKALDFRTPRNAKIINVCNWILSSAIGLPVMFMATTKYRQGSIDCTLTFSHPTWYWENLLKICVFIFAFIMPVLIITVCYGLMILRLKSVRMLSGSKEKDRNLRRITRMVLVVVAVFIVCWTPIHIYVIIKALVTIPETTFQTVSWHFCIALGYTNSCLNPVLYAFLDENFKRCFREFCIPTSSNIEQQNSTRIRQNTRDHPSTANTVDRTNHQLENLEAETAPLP

Substance: [D‐Ala2, N‐Me‐Phe4, Gly5‐ol]‐Enkephalin acetate salt [DAMGO]
- inhibition of clotrimazole-induced currents (Clt 10 μM): only partially inhibited
- inhibition of CIM0216-induced currents: complete and rapidly reversible inhibition
